Source: patent publication US7294629B2, “Quinazoline derivatives” (Mitsubishi Pharma Corporation, priority 2001, dated 2007)

How the values were obtained:
[1] = target: mutated c-erbB2 (HER2) constitutively activated, in transformed NIH3T3 cells (A4 cell) (Homo sapiens, UniProt P04626, V659E); test: HER2 tyrosine kinase inhibitory action (phosphotyrosine Western blotting in A4 cells); conditions: 2 hrs, signal without compound = 100%
A431 tumor = test: In vivo antitumor effect on A431 tumor in nude mice; set-up: species or system Balb/c female nude mice; conditions: for relative tumor growth rate: volume at start = 1
[2] = 1 mg/kg orally once a day for 14 days
[3] = 10 mg/kg orally once a day for 14 days

Structure (SMILES)	% of control at 0.1 μM (phosphorylation signal) [1]	% of control at 1 μM (phosphorylation signal) [1]	% of control (antitumor effect) (A431 tumor; [2])	relative tumor growth rate (A431 tumor; [2])	% of control (antitumor effect) (A431 tumor; [3])	relative tumor growth rate (A431 tumor; [3])	antitumor effect (in words) (A431 tumor; A431 tumor, oral, 14 days)
C=CC(=O)Nc1cc2c(Nc3ccc(F)c(Cl)c3)ncnc2cc1C#CC(C)(C)N(C)CCN(C)C	61%	31%	97.2%	5.63	1.8%	1.09	dose-dependent antitumor effect
C=CC(=O)Nc1cc2c(Nc3ccc(F)c(Cl)c3)ncnc2cc1C#CC(C)(C)N1CCC(=O)CC1	16%	5%					
